Assay results: publication PMC3602154 (PLoS ONE, 2013)

The chains behind the UniProt entries cited, without tags or fusion partners.
UniProt P31645, whole entry, species assumed: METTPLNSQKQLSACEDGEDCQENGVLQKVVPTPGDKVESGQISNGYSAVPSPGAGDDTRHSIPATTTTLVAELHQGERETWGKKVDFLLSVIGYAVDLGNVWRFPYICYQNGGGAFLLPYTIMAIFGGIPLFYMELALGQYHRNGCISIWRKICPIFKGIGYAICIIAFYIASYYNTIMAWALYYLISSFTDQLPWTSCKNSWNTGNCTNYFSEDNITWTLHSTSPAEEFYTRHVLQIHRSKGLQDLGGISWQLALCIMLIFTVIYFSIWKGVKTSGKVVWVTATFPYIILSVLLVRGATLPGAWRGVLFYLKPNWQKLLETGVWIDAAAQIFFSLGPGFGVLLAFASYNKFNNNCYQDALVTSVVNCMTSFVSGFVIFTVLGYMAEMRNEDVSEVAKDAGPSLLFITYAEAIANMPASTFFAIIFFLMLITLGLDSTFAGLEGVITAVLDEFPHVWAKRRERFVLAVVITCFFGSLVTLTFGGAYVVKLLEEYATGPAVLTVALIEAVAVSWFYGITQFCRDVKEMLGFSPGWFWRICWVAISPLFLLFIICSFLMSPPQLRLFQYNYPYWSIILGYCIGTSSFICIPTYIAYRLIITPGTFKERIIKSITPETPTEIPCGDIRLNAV

Assays:
[1] = biological target: NMDA Receptor (MK-801 binding site); assay: PDSP radioligand binding, NMDA receptor; settings: Table 2
[2] = biological target: T1, SERT (serotonin transporter) (Homo sapiens, UniProt P31645)
[3] = biological target: T1, SERT (serotonin transporter); assay: biochemical

Compound	Ki ([1]; read-out: NMDA (Ki))	affinity for the serotonin transporter (SERT), in words [2]	Ki [3]	NMDA pKi +/− SD [1]
CNC1(c2ccccc2Cl)CCCCC1=O (racemic) [Ketamine, (RS)-2-(2-chlorophenyl)-2-(methylamino)cyclohexanone, reference compound]	0.659 µM			
CCNC1(c2cccc(OC)c2)CCCCC1=O (racemic) [Methoxetamine, (RS)-2-(ethylamino)-2-(3-methoxyphenyl)cyclohexanone]		submicromolar affinities	0.481 µM	6.59±0.06
